Protein sequences, listed by entry. Tags and fused reporters are not part of them. Chains listed by the source or under a name are the forms on record and can include a tag or linker. Residues count along the entry.
UniProt P07948, with tags, fused parts or gaps: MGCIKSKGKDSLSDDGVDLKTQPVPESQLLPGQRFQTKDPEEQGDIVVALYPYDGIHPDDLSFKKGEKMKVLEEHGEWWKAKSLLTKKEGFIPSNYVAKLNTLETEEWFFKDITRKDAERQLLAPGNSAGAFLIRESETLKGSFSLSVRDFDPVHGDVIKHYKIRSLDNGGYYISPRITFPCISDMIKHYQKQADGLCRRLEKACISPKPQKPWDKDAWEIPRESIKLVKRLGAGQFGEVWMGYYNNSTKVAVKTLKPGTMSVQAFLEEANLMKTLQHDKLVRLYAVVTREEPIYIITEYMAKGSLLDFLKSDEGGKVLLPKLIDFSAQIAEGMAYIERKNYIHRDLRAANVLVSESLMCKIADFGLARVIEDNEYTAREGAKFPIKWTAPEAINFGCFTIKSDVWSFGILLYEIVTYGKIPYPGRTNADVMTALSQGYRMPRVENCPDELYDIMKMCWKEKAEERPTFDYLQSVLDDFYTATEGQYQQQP
UniProt P07948, whole entry: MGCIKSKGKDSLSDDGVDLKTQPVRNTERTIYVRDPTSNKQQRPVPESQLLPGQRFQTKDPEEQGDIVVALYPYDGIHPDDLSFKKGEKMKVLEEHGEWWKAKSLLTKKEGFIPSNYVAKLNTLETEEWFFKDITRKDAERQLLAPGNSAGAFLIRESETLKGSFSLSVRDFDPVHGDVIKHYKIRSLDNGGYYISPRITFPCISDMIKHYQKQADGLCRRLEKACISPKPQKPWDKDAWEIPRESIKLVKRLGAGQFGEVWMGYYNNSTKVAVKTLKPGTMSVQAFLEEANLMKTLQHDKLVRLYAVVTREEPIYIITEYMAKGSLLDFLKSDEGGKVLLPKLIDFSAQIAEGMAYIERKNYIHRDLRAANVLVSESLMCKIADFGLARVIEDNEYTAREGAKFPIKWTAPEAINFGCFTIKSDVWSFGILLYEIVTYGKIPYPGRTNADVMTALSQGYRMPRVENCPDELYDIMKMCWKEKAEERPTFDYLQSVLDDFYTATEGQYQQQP
UniProt Q9UM73, 19-1620 limits assumed: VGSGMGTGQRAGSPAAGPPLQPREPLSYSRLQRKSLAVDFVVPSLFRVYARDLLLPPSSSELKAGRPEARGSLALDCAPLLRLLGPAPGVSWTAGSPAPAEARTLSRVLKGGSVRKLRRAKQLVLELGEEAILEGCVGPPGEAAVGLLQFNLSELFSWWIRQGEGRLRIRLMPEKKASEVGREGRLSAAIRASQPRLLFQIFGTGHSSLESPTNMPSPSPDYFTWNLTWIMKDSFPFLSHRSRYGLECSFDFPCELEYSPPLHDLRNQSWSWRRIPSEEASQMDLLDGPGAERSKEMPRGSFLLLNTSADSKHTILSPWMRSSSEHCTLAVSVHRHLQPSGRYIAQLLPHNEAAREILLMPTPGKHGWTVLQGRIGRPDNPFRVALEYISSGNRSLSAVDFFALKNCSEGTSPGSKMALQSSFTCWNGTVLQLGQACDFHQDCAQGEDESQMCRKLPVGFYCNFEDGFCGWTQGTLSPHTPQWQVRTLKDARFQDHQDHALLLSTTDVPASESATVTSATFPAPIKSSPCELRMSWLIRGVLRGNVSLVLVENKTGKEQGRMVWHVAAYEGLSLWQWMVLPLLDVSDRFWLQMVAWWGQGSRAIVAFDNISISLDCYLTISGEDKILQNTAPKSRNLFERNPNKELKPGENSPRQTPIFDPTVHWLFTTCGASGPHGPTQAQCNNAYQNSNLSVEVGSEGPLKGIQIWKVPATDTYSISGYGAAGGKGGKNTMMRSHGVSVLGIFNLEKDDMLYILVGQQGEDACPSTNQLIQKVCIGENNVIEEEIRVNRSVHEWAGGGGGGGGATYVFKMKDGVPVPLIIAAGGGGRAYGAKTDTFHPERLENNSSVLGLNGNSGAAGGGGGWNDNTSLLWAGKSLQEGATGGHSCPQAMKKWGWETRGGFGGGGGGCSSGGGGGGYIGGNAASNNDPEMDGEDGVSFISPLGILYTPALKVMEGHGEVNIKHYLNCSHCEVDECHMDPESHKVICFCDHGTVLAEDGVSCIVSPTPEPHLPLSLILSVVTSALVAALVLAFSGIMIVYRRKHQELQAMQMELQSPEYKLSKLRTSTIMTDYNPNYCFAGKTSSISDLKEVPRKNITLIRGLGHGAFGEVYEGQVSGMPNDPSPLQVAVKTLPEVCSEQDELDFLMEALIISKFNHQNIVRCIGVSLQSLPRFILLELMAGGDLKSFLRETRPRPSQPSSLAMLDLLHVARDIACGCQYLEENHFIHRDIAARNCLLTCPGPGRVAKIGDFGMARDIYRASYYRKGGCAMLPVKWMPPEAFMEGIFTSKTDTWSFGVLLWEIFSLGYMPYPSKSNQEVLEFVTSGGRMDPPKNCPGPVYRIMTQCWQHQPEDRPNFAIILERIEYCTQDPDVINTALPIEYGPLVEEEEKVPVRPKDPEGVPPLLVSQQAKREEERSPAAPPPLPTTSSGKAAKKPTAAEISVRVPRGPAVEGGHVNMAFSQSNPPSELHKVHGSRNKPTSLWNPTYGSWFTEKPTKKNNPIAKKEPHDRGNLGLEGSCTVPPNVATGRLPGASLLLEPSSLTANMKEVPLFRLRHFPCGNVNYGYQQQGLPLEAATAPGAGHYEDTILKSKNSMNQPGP
UniProt P53778, whole entry: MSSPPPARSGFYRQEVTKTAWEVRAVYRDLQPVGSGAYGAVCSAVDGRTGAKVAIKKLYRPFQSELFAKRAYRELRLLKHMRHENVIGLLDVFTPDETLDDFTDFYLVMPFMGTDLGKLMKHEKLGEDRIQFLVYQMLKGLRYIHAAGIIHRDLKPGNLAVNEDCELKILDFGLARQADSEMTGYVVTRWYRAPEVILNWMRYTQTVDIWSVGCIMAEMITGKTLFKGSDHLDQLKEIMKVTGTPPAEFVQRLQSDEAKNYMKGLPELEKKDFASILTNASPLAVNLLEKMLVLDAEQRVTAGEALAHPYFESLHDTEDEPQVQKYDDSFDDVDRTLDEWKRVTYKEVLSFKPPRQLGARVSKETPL
UniProt Q9BZL6, whole entry: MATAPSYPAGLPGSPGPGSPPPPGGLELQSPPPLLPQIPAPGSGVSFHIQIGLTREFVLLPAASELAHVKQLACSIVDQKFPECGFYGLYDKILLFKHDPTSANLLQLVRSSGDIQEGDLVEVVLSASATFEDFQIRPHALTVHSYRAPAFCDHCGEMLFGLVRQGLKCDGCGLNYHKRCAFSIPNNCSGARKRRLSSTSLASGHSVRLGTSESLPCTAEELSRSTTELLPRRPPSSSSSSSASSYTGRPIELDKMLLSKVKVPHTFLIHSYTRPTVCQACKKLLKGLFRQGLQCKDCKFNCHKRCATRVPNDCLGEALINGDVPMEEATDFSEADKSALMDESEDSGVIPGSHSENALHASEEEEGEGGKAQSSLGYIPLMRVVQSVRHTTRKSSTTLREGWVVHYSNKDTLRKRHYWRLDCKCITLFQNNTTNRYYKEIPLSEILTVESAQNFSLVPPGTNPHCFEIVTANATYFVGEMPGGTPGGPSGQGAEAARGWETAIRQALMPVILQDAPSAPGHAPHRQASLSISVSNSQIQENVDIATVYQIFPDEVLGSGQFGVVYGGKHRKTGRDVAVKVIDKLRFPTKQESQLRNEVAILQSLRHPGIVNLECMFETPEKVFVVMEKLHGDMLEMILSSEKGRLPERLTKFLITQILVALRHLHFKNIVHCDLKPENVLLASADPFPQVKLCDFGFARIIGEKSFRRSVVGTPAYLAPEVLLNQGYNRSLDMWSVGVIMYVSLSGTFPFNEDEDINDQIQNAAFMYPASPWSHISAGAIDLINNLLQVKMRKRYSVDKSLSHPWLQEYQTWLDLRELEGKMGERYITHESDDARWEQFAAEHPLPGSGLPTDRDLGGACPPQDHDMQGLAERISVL
UniProt Q9P289, whole entry: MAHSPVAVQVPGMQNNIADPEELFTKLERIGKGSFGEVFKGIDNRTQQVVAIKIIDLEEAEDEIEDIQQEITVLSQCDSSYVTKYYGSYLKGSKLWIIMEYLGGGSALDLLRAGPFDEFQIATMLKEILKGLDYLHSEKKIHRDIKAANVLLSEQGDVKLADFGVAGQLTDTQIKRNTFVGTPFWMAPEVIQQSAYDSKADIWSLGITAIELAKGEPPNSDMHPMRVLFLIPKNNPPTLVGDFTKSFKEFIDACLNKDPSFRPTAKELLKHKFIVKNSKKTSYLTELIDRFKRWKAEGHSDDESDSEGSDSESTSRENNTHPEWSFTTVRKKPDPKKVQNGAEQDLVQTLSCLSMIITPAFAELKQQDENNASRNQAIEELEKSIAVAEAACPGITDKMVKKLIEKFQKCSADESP
UniProt P08922, 28-2347 limits assumed: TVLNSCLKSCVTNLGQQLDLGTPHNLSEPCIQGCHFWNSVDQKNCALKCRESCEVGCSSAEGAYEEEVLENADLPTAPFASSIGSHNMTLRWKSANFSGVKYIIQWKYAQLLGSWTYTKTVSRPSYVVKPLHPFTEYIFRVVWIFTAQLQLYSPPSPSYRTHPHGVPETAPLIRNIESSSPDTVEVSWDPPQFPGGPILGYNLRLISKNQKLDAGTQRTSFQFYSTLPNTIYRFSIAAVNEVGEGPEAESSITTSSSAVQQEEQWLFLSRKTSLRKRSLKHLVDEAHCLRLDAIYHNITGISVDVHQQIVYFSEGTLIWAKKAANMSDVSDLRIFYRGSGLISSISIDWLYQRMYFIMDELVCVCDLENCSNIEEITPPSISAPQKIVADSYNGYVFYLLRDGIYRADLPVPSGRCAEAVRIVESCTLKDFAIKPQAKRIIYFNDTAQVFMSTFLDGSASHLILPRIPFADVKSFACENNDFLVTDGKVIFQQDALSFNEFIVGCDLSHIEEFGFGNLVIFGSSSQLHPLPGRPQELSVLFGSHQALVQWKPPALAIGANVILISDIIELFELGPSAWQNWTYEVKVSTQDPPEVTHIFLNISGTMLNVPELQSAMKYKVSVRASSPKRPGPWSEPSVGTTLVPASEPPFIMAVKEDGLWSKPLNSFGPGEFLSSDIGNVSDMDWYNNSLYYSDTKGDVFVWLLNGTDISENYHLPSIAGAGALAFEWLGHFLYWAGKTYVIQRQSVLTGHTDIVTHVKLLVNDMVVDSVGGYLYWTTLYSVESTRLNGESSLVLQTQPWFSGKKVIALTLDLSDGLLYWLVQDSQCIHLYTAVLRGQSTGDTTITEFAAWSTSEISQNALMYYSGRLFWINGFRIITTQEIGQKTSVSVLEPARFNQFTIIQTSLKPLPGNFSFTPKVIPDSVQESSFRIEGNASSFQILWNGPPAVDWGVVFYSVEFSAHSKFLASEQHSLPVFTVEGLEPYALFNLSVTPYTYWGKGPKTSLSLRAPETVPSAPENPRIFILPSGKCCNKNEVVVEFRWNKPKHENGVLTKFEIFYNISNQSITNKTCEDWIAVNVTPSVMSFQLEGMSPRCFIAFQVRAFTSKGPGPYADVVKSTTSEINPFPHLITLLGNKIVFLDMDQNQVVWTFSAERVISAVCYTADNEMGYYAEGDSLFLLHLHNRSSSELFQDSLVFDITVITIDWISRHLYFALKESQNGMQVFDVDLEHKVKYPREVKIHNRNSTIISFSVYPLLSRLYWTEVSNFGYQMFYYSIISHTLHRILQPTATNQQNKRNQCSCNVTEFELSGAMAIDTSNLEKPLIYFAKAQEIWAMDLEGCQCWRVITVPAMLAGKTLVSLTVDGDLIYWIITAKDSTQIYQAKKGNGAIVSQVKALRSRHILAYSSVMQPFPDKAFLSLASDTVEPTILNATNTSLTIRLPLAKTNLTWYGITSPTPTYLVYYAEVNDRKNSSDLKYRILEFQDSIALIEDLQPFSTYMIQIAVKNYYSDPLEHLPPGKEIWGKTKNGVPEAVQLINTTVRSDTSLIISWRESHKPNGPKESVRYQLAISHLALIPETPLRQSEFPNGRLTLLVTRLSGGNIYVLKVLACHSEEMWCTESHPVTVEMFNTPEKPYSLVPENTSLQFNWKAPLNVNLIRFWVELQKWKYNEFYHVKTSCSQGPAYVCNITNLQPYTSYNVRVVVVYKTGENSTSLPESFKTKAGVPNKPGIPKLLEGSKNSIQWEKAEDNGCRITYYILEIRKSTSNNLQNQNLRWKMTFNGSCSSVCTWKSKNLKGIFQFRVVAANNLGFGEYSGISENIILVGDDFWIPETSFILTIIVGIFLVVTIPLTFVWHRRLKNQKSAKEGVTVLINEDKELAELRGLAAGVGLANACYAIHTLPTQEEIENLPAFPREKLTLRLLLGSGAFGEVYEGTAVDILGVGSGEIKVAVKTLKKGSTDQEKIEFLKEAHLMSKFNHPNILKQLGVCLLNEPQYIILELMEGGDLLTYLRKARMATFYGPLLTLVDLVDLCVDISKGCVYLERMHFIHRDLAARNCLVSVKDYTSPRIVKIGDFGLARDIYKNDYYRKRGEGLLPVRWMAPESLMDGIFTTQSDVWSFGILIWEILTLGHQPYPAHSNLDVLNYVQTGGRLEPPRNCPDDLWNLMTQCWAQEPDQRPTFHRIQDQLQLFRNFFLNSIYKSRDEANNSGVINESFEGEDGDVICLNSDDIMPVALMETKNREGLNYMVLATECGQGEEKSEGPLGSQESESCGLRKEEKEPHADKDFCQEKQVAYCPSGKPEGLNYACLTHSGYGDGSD

According to patent US20260384438A1, “PYRROLOPYRIMIDINE CARBOXAMIDES” (published 2026):

Legend:
Experiment in all cases: Kinase profiling, Z-Lyte
RPS6KA1 (RSK1) = RPS6KA1 (RSK1) (Homo sapiens, UniProt Q15418); conditions: 1 μM, KmATP
CSNK1A1 = CSNK1A1 (Homo sapiens, UniProt P48729); conditions: 1 μM, KmATP
LYN A Hu Phos = LYN A Hu Phos (Homo sapiens, UniProt P07948); conditions: 1 μM, KmATP
PRKCB2 (PKC Beta II) = PRKCB2 (PKC Beta II) (Homo sapiens, UniProt P05771); conditions: 1 μM, KmATP
FYN = FYN (Homo sapiens, UniProt P06241); conditions: 1 μM, KmATP
RPS6KA4 (MSK2) = RPS6KA4 (MSK2) (Homo sapiens, UniProt O75676); conditions: 1 μM, KmATP
CAMK4 (CaMKIV) = CAMK4 (CaMKIV) (Homo sapiens, UniProt Q16566); conditions: 1 μM, KmATP
FRK (PTK5) = FRK (PTK5) (Homo sapiens, UniProt P42685); conditions: 1 μM, KmATP
ADRBK1 (GRK2) = ADRBK1 (GRK2) (Homo sapiens, UniProt P25098); conditions: 1 μM, KmATP
YES1 = YES1 (Homo sapiens, UniProt P07947)
GRK6 = GRK6 (Homo sapiens, UniProt P43250); conditions: 1 μM, KmATP
EPHB2 = EPHB2 (Homo sapiens, UniProt P29323)
PIM2 = PIM2 (Homo sapiens, UniProt Q9P1W9); conditions: 1 μM, KmATP
AMPK A2/B2/G3 = AMPK A2/B2/G3 (Homo sapiens, UniProt P54646); conditions: 1 μM, KmATP
ALK = ALK (Homo sapiens, UniProt Q9UM73); conditions: 1 μM, KmATP
MAPK12 (p38 gamma) = MAPK12 (p38 gamma) (Homo sapiens, UniProt P53778); conditions: 1 μM, KmATP
MAP3K9 (MLK1) = MAP3K9 (MLK1) (Homo sapiens, UniProt P80192); conditions: 1 μM, KmATP
LTK (TYK1) = LTK (TYK1) (Homo sapiens, UniProt P29376); conditions: 1 μM, KmATP
STK25 (YSK1) = STK25 (YSK1) (Homo sapiens, UniProt O00506); conditions: 1 μM, KmATP
PRKD2 (PKD2) = PRKD2 (PKD2) (Homo sapiens, UniProt Q9BZL6); conditions: 1 μM, KmATP
AMPK A2/B1/G1 = AMPK A2/B1/G1 (Homo sapiens, UniProt P54646); conditions: 1 μM, KmATP
LYN B = LYN B (Homo sapiens, UniProt P07948)
MST4 = MST4 (Homo sapiens, UniProt Q9P289); conditions: 1 μM, KmATP
PRKCD (PKC delta) = PRKCD (PKC delta) (Homo sapiens, UniProt Q05655); conditions: 1 μM, KmATP
PRKCH (PKC eta) = PRKCH (PKC eta) (Homo sapiens, UniProt P24723); conditions: 1 μM, KmATP
EEF2K = EEF2K (Homo sapiens, UniProt O00418); conditions: 1 μM, KmATP
CSNK1E (CK1 epsilon) = CSNK1E (CK1 epsilon) (Homo sapiens, UniProt P49674); conditions: 1 μM, KmATP
JAK2 JH1 JH2 = JAK2 JH1 JH2 (Homo sapiens, UniProt O60674); conditions: 1 μM, KmATP
MSTIR (RON) = MSTIR (RON) (Homo sapiens, UniProt Q04912); conditions: 1 μM, KmATP
JAK2 = JAK2 (Homo sapiens, UniProt O60674); conditions: 1 μM, KmATP
PIM3 = PIM3 (Homo sapiens, UniProt Q86V86); conditions: 1 μM, KmATP
SGKL (SGK3) = SGKL (SGK3) (Homo sapiens, UniProt Q96BR1); conditions: 1 μM, KmATP
CDK1/cyclin B = CDK1/cyclin B (Homo sapiens, UniProt P06493); conditions: 1 μM, KmATP
MAPK1 (ERK2) = MAPK1 (ERK2) (Homo sapiens, UniProt P28482); conditions: 1 μM, KmATP
PKN1 (PRK1) = PKN1 (PRK1) (Homo sapiens, UniProt Q16512); conditions: 1 μM, KmATP
ROS1 = ROS1 (Homo sapiens, UniProt P08922); conditions: 1 μM, KmATP
PRKCE (PKC epsilon) = PRKCE (PKC epsilon) (Homo sapiens, UniProt Q02156); conditions: 1 μM, KmATP
SRC Hu Phos = SRC Hu Phos (Homo sapiens, UniProt P12931)
PRKACA (PKA) = PRKACA (PKA) (Homo sapiens, UniProt P17612); conditions: 1 μM, KmATP

Cc1nc(C(F)(F)F)c2c(C(N)=O)c(N)n(-c3c(C)ccc(O)c3C)c2n1 (single isomer, unassigned)
MEAN INHIBITION (RPS6KA1 (RSK1)): 10.570% | MEAN INHIBITION (CSNK1A1): 4.723% | MEAN INHIBITION (LYN A Hu Phos): 41.079% | MEAN INHIBITION (PRKCB2 (PKC Beta II)): 5.028% | MEAN INHIBITION (FYN): 60.587% | MEAN INHIBITION (RPS6KA4 (MSK2)): 6.622% | MEAN INHIBITION (CAMK4 (CaMKIV)): −0.707% | MEAN INHIBITION (FRK (PTK5)): 67.392% | MEAN INHIBITION (ADRBK1 (GRK2)): 2.161% | MEAN INHIBITION (YES1; 1 μM, KmATP): 62.995% | IC50 (YES1; 10-point CR, ATP 25.000 μM): 249 nM | MEAN INHIBITION (GRK6): 2.821% | MEAN INHIBITION (EPHB2; 1 μM, KmATP): 68.536% | IC50 (EPHB2; 10-point CR, ATP 75.000 μM): 374 nM | MEAN INHIBITION (PIM2): 2.302% | MEAN INHIBITION (AMPK A2/B2/G3): 2.185% | MEAN INHIBITION (ALK): 6.004% | MEAN INHIBITION (MAPK12 (p38 gamma)): 9.311% | MEAN INHIBITION (MAP3K9 (MLK1)): −6.777% | MEAN INHIBITION (LTK (TYK1)): 3.950% | MEAN INHIBITION (STK25 (YSK1)): 1.849% | MEAN INHIBITION (PRKD2 (PKD2)): 7.103% | MEAN INHIBITION (AMPK A2/B1/G1): 1.980% | MEAN INHIBITION (LYN B; 1 μM, KmATP): 52.127% | IC50 (LYN B; 10-point CR, ATP 25.000 μM): 387 nM | MEAN INHIBITION (MST4): 6.444% | MEAN INHIBITION (PRKCD (PKC delta)): 3.258% | MEAN INHIBITION (PRKCH (PKC eta)): 4.761% | MEAN INHIBITION (EEF2K): 7.251% | MEAN INHIBITION (CSNK1E (CK1 epsilon)): 0.607% | MEAN INHIBITION (JAK2 JH1 JH2): 0.927% | MEAN INHIBITION (MSTIR (RON)): 1.678% | MEAN INHIBITION (JAK2): 3.492% | MEAN INHIBITION (PIM3): 0.696% | MEAN INHIBITION (SGKL (SGK3)): −1.282% | MEAN INHIBITION (CDK1/cyclin B): 4.337% | MEAN INHIBITION (MAPK1 (ERK2)): 1.904% | MEAN INHIBITION (PKN1 (PRK1)): 3.985% | MEAN INHIBITION (ROS1): 7.695% | MEAN INHIBITION (PRKCE (PKC epsilon)): 0.959% | MEAN INHIBITION (SRC Hu Phos; 1 μM, KmATP): 72.168% | IC50 (SRC Hu Phos; 10-point CR, ATP 50.000 μM): 185 nM | MEAN INHIBITION (PRKACA (PKA)): 1.830%
